## Antibody variant affinities, Ab-14 heavy chain, assay 1

Data: MIT Lincoln Laboratory AlphaSeq set, Engelhart et al. 2022, doi:10.1038/s41597-022-01779-4, as distributed in FLAb.

Target peptide (SARS-CoV-2 spike, HR2 region): PDVDLGDISGINAS

Parent scFv Ab-14: VH joined to VL by a 15-residue (Gly4Ser)3 linker. Changes lie in the heavy chain CDRs alone.
VH: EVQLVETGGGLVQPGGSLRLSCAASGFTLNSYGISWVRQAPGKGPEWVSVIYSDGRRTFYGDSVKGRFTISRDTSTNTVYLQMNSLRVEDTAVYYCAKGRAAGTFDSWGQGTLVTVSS
VL: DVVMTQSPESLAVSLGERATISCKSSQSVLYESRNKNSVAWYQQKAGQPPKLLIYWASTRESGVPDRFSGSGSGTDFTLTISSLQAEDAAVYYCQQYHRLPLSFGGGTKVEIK

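The parent was found by panning a naive human phage display library on the peptide. The library (AAYL49) carries one to three amino acid substitutions per variant, with no insertions or deletions. Affinity was read by AlphaSeq, a pooled yeast mating assay with surface-displayed partners. Pairs that bind mate more often; barcode pairs of the diploids are counted by sequencing. A regression on co-assayed BCL2-family reference pairs converts the normalised counts of each replicate to an apparent Kd. There are three technical replicates.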

The parent's heavy chain CDRs are GFTLNSYGIS, VIYSDGRRTFYGDSVK, GRAAGTFDS; each variant's own CDRs replace them letter for letter.
Every variant below is changed at V50 of the VH (sequential numbering).
Values are log10 of the apparent Kd in nM; lower means stronger binding.
Replicates are averaged; those with no signal do not enter the mean.
"ND" marks a missing value. The strain was present, yet no cells mated with the target were sequenced in that replicate, which points to weak or no binding.
Entries are sorted by rising average, undetected variants last.
In this assay the parent's reference entry averaged 0.65; its copy inside this library read 4.11 (one replicate of three).
Background: pairings of library AAYL49 with three empty control strains gave a value in 15% of cases (median 4.06, 5th percentile 2.83). Values in that range, when seen in few replicates, are hard to tell from nonspecific mating.

CDR-H1	CDR-H2	CDR-H3	replicates, log10 nM	mean, log10 nM
GFTLNSAGIS	PIYSDGRRTFYKDSVK	GRAAGTFDS	1.92 ND ND	1.92
GFTLNSYGIS	ETYSDGRRTFYGDSVK	GRAAGSFDS	ND 3.23 ND	3.23
GFTLNSYGIS	RIYSDGRRTFYGDQVK	GRAANTFDS	ND ND 3.24	3.24
GFTLNSRGIS	LIYSDGRRTFYGDSSK	GRAAGTFDS	ND ND 3.37	3.37
GFTLNSYGIS	KIYSDGRRTLYGDSVK	GRAAGYFDS	ND 3.65 ND	3.65
GFTLHSYGIS	EIYSDGRRTFYGDSVK	GRGAGTFDS	ND 3.91 ND	3.91
FFTLNSYGIS	KIYSDGRRTFYGLSVK	GRAAGTFDS	3.99 ND 3.96	3.98
GFTDNSYGIS	PIYSDGRRTFYGDSVK	QRAAGTFDS	3.84 ND 4.30	4.07
NFTLNSYGIS	IIYSDGRRTFYGDSFK	GRAAGTFDS	ND ND 4.38	4.38
GFTLNSYGIS	SIYSDGRFTFYVDSVK	GRAAGTFDS	ND 3.52 5.58	4.55
GFTLNSYGIS	YIYSDGRRTFYGDWDK	GRAAGTFDS	ND 4.54 4.63	4.58
GFTLNSYGFS	PIYSDGRRTFYGWSVK	GRAAGTFDS	5.12 ND ND	5.12
GRTLNSYGIS	GIYSDGRRTFYGDSVK	GMAAGTFDS	4.63 5.62 6.38	5.55
GFTLNSYGIS	YIYSDGRRDFYGDSVK	GRAAGTFDS	ND ND 5.94	5.94
GFTLNSYGIS	DQYSDGRATFYGDSVK	GRAAGTFDS	ND ND ND	ND
GFTWNSYGIS	WIYSDGRRTFYGDSVK	GRARGTFDS	ND ND ND	ND
GFTLNSYGTS	MIYSDGRRTFGGDSVK	GRAAGTFDS	ND ND ND	ND
GFTLNSQGIS	TGYSDGRRTFYGDSVK	GRAAGTFDS	ND ND ND	ND
GFTLNSYGIS	PIYSDGRRTFYGDLVK	GRAAGTFDR	ND ND ND	ND
GFTLNSYGIL	TIYSDGRPTFYGDSVK	GRAAGTFDS	ND ND ND	ND
GFTLNSYGIS	FIYYLGRRTFYGDSVK	GRAAGTFDS	ND ND ND	ND
GFTLNSYGIN	PIYSDGRREFYGDSVK	GRAAGTFDS	ND ND ND	ND
AFTLQSYGIS	RIYSDGRRTFYGDSVK	GRAAGTFDS	ND ND ND	ND
GFTLNSYGRS	PIYSDGRRTFYCDSVK	GRAAGTFDS	ND ND ND	ND
GFTTNSYGIS	SIYTDGRRTFYGDSVK	GRAAGTFDS	ND ND ND	ND
GFTLNSYGIS	HIYSDGRRTFYGDSWK	GRADGTFDS	ND ND ND	ND
GFTLNSYGIS	QIGSDIRRTFYGDSVK	GRAAGTFDS	ND ND ND	ND
GFTLNSYGIS	FIYSDKRRTFYGDSVK	GKAAGTFDS	ND ND ND	ND
GFTLNSYGIS	RIYSDGRRTFYGDSVK	GRAAGCEDS	ND ND ND	ND
GFTLNSYGIS	WIYSDGRGTFYGDSVR	GRAAGTFDS	ND ND ND	ND
GFGLNSYGIS	SIYSDGRRTFYGDSVK	GRAAGTFDS	ND ND ND	ND
GFTLNSYGIS	SIYSDGRRTFYGDSVK	GRAAGWFYS	ND ND ND	ND
GFTLNSYGIS	KHYSDCRRTFYGDSVK	GRAAGTFDS	ND ND ND	ND
GFTLNSYGIS	LIYSDVRRTFYGDSVK	GRFAGTFDS	ND ND ND	ND